We go through 77 compounds from PubChem BioAssay AID894 (National Center for Advancing Translational Sciences (NCATS), 2007).

The chains behind the UniProt entries cited, without tags or fusion partners.
UniProt P15428, whole entry: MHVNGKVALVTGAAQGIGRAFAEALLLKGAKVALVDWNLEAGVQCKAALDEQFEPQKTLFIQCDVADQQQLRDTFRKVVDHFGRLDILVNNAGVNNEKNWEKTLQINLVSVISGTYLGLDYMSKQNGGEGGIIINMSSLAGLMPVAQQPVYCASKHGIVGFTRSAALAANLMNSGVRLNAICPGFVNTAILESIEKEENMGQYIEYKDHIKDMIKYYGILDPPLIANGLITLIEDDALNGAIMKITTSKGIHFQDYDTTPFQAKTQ

Values joined by “and” are separate entries in the source; they are usually repeats but may differ in a detail not shown here. Equal values may be shown once. Only a part is listed here, and it is no random draw. Records with an inconclusive call do not appear. Some salts or complexes appear as unconnected parts, following the source record. Active and inactive are the calls of the source. The call rests on the fitted dose curve; in most records, active means well fitted inhibition curve with a large enough effect (not every such curve was filed as active); inconclusive means small, poorly fitted or top-dose-only effect, or another doubt; inactive means no such curve, though single readings can be large or run the other way.
On the % scale 0 is the no-effect control and ±100 the full control effect; potency means the concentration at half of the fitted maximal effect.

This experiment has as its target 15-hydroxyprostaglandin dehydrogenase [NAD(+)] (Homo sapiens) (UniProt P15428). The experiment in a line: qHTS Assay for Inhibitors of HPGD (15-Hydroxyprostaglandin Dehydrogenase). On activity change, negative = inhibition: test concentration not given here. The settings on record: purified HPGD, NADH fluorescence kinetic, PGE2 substrate; activity change, negative = inhibition: active compounds read low. (In general: In qHTS, concentration-response curves come from the screen itself.)
In the case of `CCC(C)N(CC(C)C)C(=S)SC(NC(C)=O)C(Cl)(Cl)Cl` (configuration not stated), the activity change, negative = inhibition was inactive: -28.6%.

Take `O=C(O)[C@@H](O)c1ccc([As](=O)(O)O)cc1`: the activity change, negative = inhibition was inactive: -6.31%.

Turning to `O=C(COc1ccccc1)OC1CN2CCC1CC2` (configuration not stated), the activity change, negative = inhibition was inactive: 3.31%.

Take `[Au].[Au].c1ccc([PH+](c2ccccc2)c2ccccc2)cc1.c1ccc([PH+](c2ccccc2)c2ccccc2)cc1.n1n[nH]c(-c2nnn[nH]2)n1`: the Potency was active: 1.58 µM.

Turning to `COP1(=S)c2c(C)nn(CCC#N)c2N=C(c2ccc(F)cc2)N1C` (configuration not stated), the activity change, negative = inhibition was inactive: -16.2%.

As for `CN(N=O)C(=N)N[N+](=O)[O-]`, the activity change, negative = inhibition is inactive: -7.7%.

For `CP(=O)(Nc1ccccc1Br)Oc1ccccc1` (configuration not stated), the Potency was active: 11.2 µM.

On to `O=[N+]([O-])c1cc([N+](=O)[O-])c(-c2ccn[nH]2)s1`, for which the activity change, negative = inhibition was inactive: -7.14%.

Turning to `CCN(CC)C(=S)SC(NC=O)C(Cl)(Cl)Cl` (configuration not stated), the activity change, negative = inhibition was inactive: -14.2%.

For the compound `O=[As]c1ccc(S(=O)(=O)NCCO)cc1` (configuration not stated), the activity change, negative = inhibition is inactive: -12.4%.

On to `ClCCSc1nnc(-c2cccnc2)o1`, for which the activity change, negative = inhibition is inactive: -28.2%.

As to `Cc1ccc2nc3c(c(C)c2c1)CC(C(Cl)Cl)S3` (configuration not stated), the activity change, negative = inhibition was inactive: -19.3%.

For `NC(=O)Nc1cc([As](=O)(O)O)cc(I)c1O`, the activity change, negative = inhibition was inactive: 1.79%.

Consider `c1ccc(P(c2ccccc2)c2ccccc2)cc1`, for which the activity change, negative = inhibition is inactive: -5.59%.

As to `O=C(OC1CN2CCC1CC2)C12CC3CC(CC(C3)C1)C2` (configuration not stated), the activity change, negative = inhibition was inactive: -10.8%.

Regarding `Cc1ccc(NCCc2c([N+](=O)[O-])cc([N+](=O)[O-])cc2[N+](=O)[O-])cc1`, the activity change, negative = inhibition is inactive: -5.68%.

For `O=C(CC(=O)c1ccccc1)O[C@H]1CN2CCC1CC2`, the activity change, negative = inhibition is inactive: -11.9%.

As for `NS(=O)(=O)Cc1ccc([As](=O)(O)O)cc1`, the activity change, negative = inhibition was inactive: -2.6%.

Consider `Cc1ccc(C)c(NP(C)(=O)Oc2ccccc2)c1` (configuration not stated), for which the Potency is active: 28.2 µM.

As to `Cc1cccc(OCC(=O)OC2CN3CCC2CC3)c1` (configuration not stated), the activity change, negative = inhibition was inactive: 1.01%.

Turning to `CN(C(=O)Cc1ccc(Cl)c(Cl)c1)[C@@H]1CC[C@]2(CCCO2)C[C@H]1N1CCCC1`, the activity change, negative = inhibition was inactive: -11.9%.

For `CCOP1(=S)c2c(C)nn(CCC#N)c2N=C(c2ccc(F)cc2)N1C` (configuration not stated), the activity change, negative = inhibition was inactive: -14.8%.

Regarding `CN(C(=O)Cc1ccccc1)[C@@H]1CC[C@]2(CCCO2)C[C@H]1N1CCCC1`, the activity change, negative = inhibition is inactive: -25.5%.

As to `O=[N+]([O-])c1ccc2c(c1)nnn2O`, the activity change, negative = inhibition was inactive: -21%.

Regarding `O=[N+]([O-])CC(O)c1ccc([N+](=O)[O-])cc1` (configuration not stated), the activity change, negative = inhibition is inactive: -27.6%.

Take `NC(=O)Nc1ccc([As](=O)(O)O)cc1`: the activity change, negative = inhibition is inactive: -8.17% and inactive: -7.51%.

In the case of `O=[As](O)(O)c1ccc([As](=O)(O)O)cc1`, the activity change, negative = inhibition is inactive: 4.38%.

Regarding `CCOP1(=S)c2c(C)nn(CCC#N)c2N=C(c2ccccc2F)N1C` (configuration not stated), the activity change, negative = inhibition is inactive: -3.22%.

With `Cc1ccc(OCC(=O)OC2CN3CCC2CC3)cc1` (configuration not stated), the activity change, negative = inhibition was inactive: -2.19%.

Regarding `CN1CCCCC1COC(=O)C1(O)c2ccccc2CCc2ccccc21` (configuration not stated), the activity change, negative = inhibition is inactive: -9.76%.

For the compound `Cc1nn(-c2ccccc2)c2c1P(=O)(N1CCOCC1)N(C)C(c1ccccc1)=N2` (configuration not stated), the activity change, negative = inhibition was inactive: -6.51%.

For `COc1cc(C2NCCC3(OCCO3)C2(C)C)cc(OC)c1OC.O=[N+]([O-])c1cc([N+](=O)[O-])c(O)c([N+](=O)[O-])c1` (configuration not stated), the activity change, negative = inhibition was inactive: -0.336%.

Turning to `CN(C(=O)Cc1ccc(Cl)c(Cl)c1)[C@@H]1CCCC[C@H]1N1CCCC1`, the activity change, negative = inhibition is inactive: -25.2%.

As for `CN(CCCl)Cc1cc(Cl)c(NC2=NCCN2)c(Cl)c1`, the activity change, negative = inhibition was inactive: -12.7%.

Regarding `C[C@@H](O)COc1ccc([As](=O)(O)O)cc1N`, the activity change, negative = inhibition was inactive: 0.0241%.

As to `CCN(CCCl)Cc1ccccc1C`, the activity change, negative = inhibition is inactive: -15%.

Take `Cc1ccccc1NP(C)(=O)Nc1ccccc1C`: the Potency was active: 8.91 µM.

On to `CP(=O)(Nc1ccc2c(c1)OCCO2)Oc1ccccc1` (configuration not stated), for which the Potency was active: 10 µM.

In the case of `CN1CCC[C@H](OC(=O)C(c2ccccc2)c2ccccc2)C1`, the activity change, negative = inhibition was inactive: -2.35%.

With `c1nnnn1CCn1cnnn1`, the activity change, negative = inhibition is inactive: 2.23%.

Regarding `CC(C)C(=O)NC(Sc1ccccc1)C(Cl)(Cl)Cl` (configuration not stated), the activity change, negative = inhibition was inactive: -5.92%.

Turning to `O=P(Nc1nccs1)(c1ccccc1)c1ccccc1`, the activity change, negative = inhibition is inactive: -7.12%.

With `O=C(OC1CN2CCC1CC2)c1cccc(Cl)c1` (configuration not stated), the activity change, negative = inhibition was inactive: 4.08%.

For the compound `C(Cc1nn[nH]n1)Cc1nn[nH]n1`, the activity change, negative = inhibition was inactive: -13.6%.

Take `CCN(CCO)CCO.Oc1c(Cl)c(Cl)c(Cl)c(Cl)c1Cl`: the Potency was active: 4.47 µM.

Take `CC(=O)NC(SC(=S)N(C)C)C(Cl)(Cl)Cl` (configuration not stated): the activity change, negative = inhibition was inactive: -9.64%.

As for `[N-]=[N+]=Nc1ccc([As](=O)(O)O)cc1`, the activity change, negative = inhibition was inactive: -8.15%.

Regarding `Cc1cc([N+](=O)[O-])cc([N+](=O)[O-])c1O`, the activity change, negative = inhibition was inactive: -4.4%.

For the compound `CN(C)CCOC(=O)C(O)(c1ccccc1)C1CCCCC1` (configuration not stated), the activity change, negative = inhibition is inactive: -0.522%.

For `CP(=O)(Nc1ccccc1)Oc1ccc(F)cc1` (configuration not stated), the Potency is active: 31.6 µM.

In the case of `CCN(CC)CCCOC(=O)C(O)(c1ccccc1)C1CCCCC1` (configuration not stated), the activity change, negative = inhibition was inactive: 2.74%.

Consider `CCC(=O)N1C2C3N(C(=O)CC)C1C1N(C(=O)CC)C(C(N1C(=O)CC)N3C(=O)CC)N2C(=O)CC`, for which the activity change, negative = inhibition was inactive: -0.124%.

With `CN(C(=O)Cc1ccc(Cl)c(Cl)c1)[C@@H]1CCCC[C@@H]1N1CCCC1`, the activity change, negative = inhibition was inactive: -12.9%.

Consider `CC(=O)NC(SC(=S)N(CC(C)C)CC(C)C)C(Cl)(Cl)Cl` (configuration not stated), for which the activity change, negative = inhibition was inactive: -9.53%.

As for `COC(=O)c1cc2c(s1)N=C(c1ccccc1)N(C)P2(=O)N1CCOCC1` (configuration not stated), the activity change, negative = inhibition was inactive: -17.8%.

`CCOC(=O)c1ccc(NP(C)(=O)Oc2ccc(F)cc2)cc1` (configuration not stated): the Potency was active: 17.8 µM.

On to `CCOC(=O)NC(Sc1ccccc1)C(Cl)(Cl)Cl` (configuration not stated), for which the activity change, negative = inhibition was inactive: -1.42%.

Turning to `O=C(OCCN1CCN(CCOCc2ccccc2)CC1)C(O)(c1ccccc1)c1ccccc1`, the activity change, negative = inhibition is inactive: 2.77%.

Consider `CP(=O)(Nc1ccccc1F)Oc1ccccc1` (configuration not stated), for which the Potency was active: 7.08 µM.

Turning to `O=P1(Nc2nc3ccc(Cl)cc3s2)COc2ccccc2O1` (configuration not stated), the activity change, negative = inhibition is inactive: -13.1%.

For `NCC[C@@H](N)CSP(=O)(O)O`, the activity change, negative = inhibition is inactive: 1%.

As for `COc1ccccc1OP(C)(=O)Nc1ccc(C)cc1C` (configuration not stated), the Potency was active: 1.58 µM.

Take `Cc1c2non([O-])c-2c(C)[n+](=O)[n+]1[O-]`: the activity change, negative = inhibition is inactive: -17.8%.

As for `CC(C)CC(=O)NC(Sc1ccc(Cl)cc1)C(Cl)(Cl)Cl` (configuration not stated), the activity change, negative = inhibition is inactive: -11.6%.

With `CN(C)CCOC(=O)C(O)(c1ccccc1)C1CCCC1` (configuration not stated), the activity change, negative = inhibition is inactive: -5.67%.

With `CN1CCCC(OC(=O)C(c2ccccc2)c2ccccc2)C1` (configuration not stated), the activity change, negative = inhibition is inactive: -7.67%.

Regarding `O=[N+]([O-])c1ccc(C[As](=O)(O)O)cc1`, the activity change, negative = inhibition was inactive: -5.63%.

Take `CCN(N=Nc1nonc1N)c1nonc1N`: the activity change, negative = inhibition was inactive: -8.39%.

Consider `C(Cc1nn[nH]n1)c1nn[nH]n1`, for which the activity change, negative = inhibition was inactive: -1.81%.

Take `CCOP(=O)(Nc1ccccc1)OCC`: the activity change, negative = inhibition is inactive: -5.13%.

Consider `O=C(CO)Nc1ccc([As](=O)(O)O)cc1`, for which the activity change, negative = inhibition was inactive: -6.24%.

For the compound `CC1CCN(C(=O)Oc2c(Cl)cc(Cl)c3cccnc23)CC1`, the activity change, negative = inhibition was inactive: -2.81%.

As to `CC(=O)C1=CCCC2CCC1N2` (configuration not stated), the activity change, negative = inhibition was inactive: -7.89%.

Turning to `CN(C)C(=O)OCCc1n(C)cc[n+]1C`, the activity change, negative = inhibition was inactive: -1.82%.

On to `O=[N+]([O-])c1cccc2n[nH]nc12`, for which the activity change, negative = inhibition was inactive: -10.1%.

`CC(=O)N1C2C3N(C(C)=O)C1C1N(C(C)=O)C(C(N1C(C)=O)N3C(C)=O)N2C(C)=O`: the activity change, negative = inhibition is inactive: -4.49%.

Consider `CCN(CC)CC(O)COC(=O)C(O)(c1ccccc1)C1CCCCC1` (configuration not stated), for which the activity change, negative = inhibition was inactive: -0.91%.
